According to PMC11602703 (Frontiers in Pharmacology, 2024):
Like-named read-outs stand apart in the source and are kept apart here.

Assays:
[1] = system: IGROV-1 cells; assay: cells; assay type: cell-based, human
[2] = system: A2780 cells; assay: Cell growth, crystal violet assay, A2780; conditions: Homo sapiens, A2780, 72 h, read-out: Cellular IC50 values A2780
[3] = system: HT29 cells; assay: Cell growth, crystal violet assay, HT29; assay type: cell-based; conditions: Homo sapiens, HT-29, 72 h, read-out: Cellular IC50 values HT29
[4] = system: HCT116 cells; assay: Cell growth, crystal violet assay, HCT116; assay type: cell-based; conditions: Homo sapiens, HCT-116, 72 h, read-out: Cellular IC50 values HCT116
[5] = system: A2780/CP cells; assay: Cell growth, crystal violet assay, A2780/CP; assay type: cell-based; conditions: Homo sapiens, A2780C/P, 72 h, read-out: Cellular IC50 values A2780/CP
[6] = Homo sapiens, IGROV-1, 72 h, read-out: Cellular IC50 values IGROV-1, 72 h-treatment, compound alone

Row | Structure (SMILES) | IC50 [1, 6] | IC50 [2] | IC50 [3] | IC50 [4] | IC50 [5] | IC50 ([1]; read-out: Cellular IC50 values IGROV-1, 72 h-treatment, compound alone)
1 | O=c1[nH]cc(F)c(=O)[nH]1 [Compound 5-FU, 5-fluorouracil, reference compound] | 16.9 ± 1 µM | 8.5 ± 0.8 µM | 14.2 ± 3 µM | 13.5 ± 1.5 µM | 11.6 ± 1.2 µM | 
2 | NC(=O)c1ccc(NC(=O)C(Sc2ccc([N+](=O)[O-])cc2)c2ccccc2)cc1 (stereo not drawn) [Compound E5, 2-Phenyl-2-(4-nitrophenylthio)-N-(4-carboxamidophenyl)acetamide] |  | 28.8 ± 4 µM | 70.5 ± 1.6 µM | 61.8 ± 1.8 µM | 34.3 ± 5 µM | 63.9 ± 8 µM
3 | CS(=O)(=O)c1ccc2nc(NC(=O)C(Sc3ccc([N+](=O)[O-])cc3)c3ccccc3)sc2c1 (stereo not drawn) [Compound E7, phenyl-2-(4-nitrophenylthio)-N-(6-methanesulfonylbenzothiazol-2-yl)acetamide] | 37.4 ± 6 µM | 10.1 ± 0.3 µM | 34.5 ± 3 µM | 35.5 ± 0.3 µM | 21.5 ± 3 µM | 
